Data reported in patent publication US11015179B2, “Peptide having anti-viral effect and composition containing same” (priority 2015, dated 2021).

How the values were obtained:
[1] = system: HBV; assay: Virion production (real-time PCR of HBV DNA) in W4P-transfected Huh7 cell line; format: cell-based, hepatitis B virus; settings: Huh7, 10 μM, 48 hours
Procedure: To observe the potential for virion proliferation of whole HBV containing W4P, virion DNA was extracted from the entire supernatant while the medium was changed every 24 hours by the above-described method, and subjected to real-time quantitative PCR using a Quantitech SYBR Green Master-Mix kit (Qiagen). The entire supernatant was centrifuged using an ultracentrifuge equipped with an SW28 swing rotor at 20,000 rpm for 2 hours to precipitate the virus, and the precipitated viral pellets were suspended with 200 μl of sterilized DW. […] Real-time PCR was performed at 40 cycles of 5 min at 95° C., 15 sec at 94° C., and 15 sec at 60° C. using the Exicycler™ 96 Real-Time Quantitative Thermal Block System (Bioneer Co., Korea), and the temperature was increased from 53° C. to 90° C. by modulating to 0 sec at 95° C., 30 sec at 53° C. and modulating by 0.1° C. per second to analyze a melting curve.
To observe the virion production in the supernatant after the inhibition of HBsAg secretion by the PEP1 peptide was observed, virions were collected from the supernatant obtained by the above-described method using PEG 6000, and HBV DNA was obtained using a virus DNA prep kit (Intron, Korea), and then quantified by real-time PCR.

[2] = system: HSP90 and FKBP8; assay: Immunoprecipitation of HSP90 and FKBP8 in JFH-1 cells; format: cell-based, human; settings: PEP1 10 μM, 48 hours, vs control
Procedure: For immunoprecipitation, 400 μg of a cell lysate was pre-washed with a protein A/G plus-agarose bead immunoprecipitant (Santa Cruz Biotechnology) for two hours and then centrifuged, followed by removing the beads. The supernatant was cultured with 4 μg of related antibodies, 20 μl of beads and a lysis buffer overnight at 4° C. The immunoprecipitation was prepared for immunoblotting of anti-HSP90 (Cell Signaling Technology) antibodies and FKBP8 (Thermo Fisher Scientific).
It has been known that HSP90 is involved in forming a complex of NS5A and FKBP8 for HCV RNA replication. Therefore, it was investigated if the inhibition of the HCV RNA replication by PEP1 is caused by the inhibition of the formation of a replication complex. The binding between HSP90 and FKBP8 was observed by treating the JFH-1 cells with PEP1. Specifically, the JFH-1 cells were cultured with PEP1 (10 μM) for 48 hours. Afterward, the proteins were subjected to immunoprecipitation with anti-FKBP8 antibodies or anti-HSP90 antibodies. Endogenous expression of HSP90 and FKBP8 was detected in untreated JFH-1 cells.

With `CC[C@H](C)[C@H](NC(=O)[C@H](Cc1ccccc1)NC(=O)[C@H](CCCNC(=N)N)NC(=O)[C@H](CC(C)C)NC(=O)[C@H](CCCNC(=N)N)NC(=O)[C@H](CO)NC(=O)[C@@H](NC(=O)[C@H](CC(C)C)NC(=O)[C@H](CC(C)C)NC(=O)[C@H](C)NC(=O)[C@@H]1CCCN1C(=O)[C@H](CCCNC(=N)N)NC(=O)[C@H](C)NC(=O)[C@@H](N)CCC(=O)O)[C@@H](C)O)C(=O)N1CCC[C@H]1C(=O)N[C@@H](CCCCN)C(=O)O` [PEP1, EARPALLTSRLRFIPK] the “Virions produced in the supernatant” value [1] was “inhibitory effect” and the “Co-precipitation of HSP90 by FKBP8” value [2] was “reduced”.
